Data from US4179337A, “Non-immunogenic polypeptides” (priority 1977, dated 1979).

Experiment: Enzymatic activity of PEG-catalase (method of Beers and Sizer)
Assay type: biochemical
From the text: Catalase--assayed by the method of Beers and Sizer (J. Biol. Chem., 195, 133 (1952)).

Hydrogen-peroxide: hydrogen-peroxide oxidoreductase [Unmodified catalase]
catalase enzymatic activity: 41,500 units/mg. protein
